Source: publication PMC10809502, “Application of a new MDCKII-MDR1 cell model to measure the extent of drug distribution in vitro at equilibrium for prediction of in vivo unbound brain-to-plasma drug distribution” (Fluids and Barriers of the CNS, 2024)

Tested on: MDCKII-cells transfected with the human P-gp-transporter (hMDR1)
Conditions: from efflux ratio

## O=C1CC2(CCCC2)CC(=O)N1CCCCN1CCN(c2ncccn2)CC1 [Buspirone, buspirone]
  Human P-gp substrate classification: Unlikely (unlikely substrates: ER < 1.5)
